Protein sequences, listed by entry. Tags and fused reporters are not part of them.
UniProt Q96LB2, whole entry: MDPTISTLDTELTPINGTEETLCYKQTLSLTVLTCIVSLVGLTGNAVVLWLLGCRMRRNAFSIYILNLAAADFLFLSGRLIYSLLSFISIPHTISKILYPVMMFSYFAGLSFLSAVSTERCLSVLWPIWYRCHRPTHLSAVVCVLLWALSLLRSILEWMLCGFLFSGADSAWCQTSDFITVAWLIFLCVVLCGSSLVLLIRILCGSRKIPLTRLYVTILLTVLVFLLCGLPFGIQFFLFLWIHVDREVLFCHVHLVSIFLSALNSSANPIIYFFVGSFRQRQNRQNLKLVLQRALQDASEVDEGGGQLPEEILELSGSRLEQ

The entries are a selection whose mix differs from that of the whole data set. The source made the active and inactive calls.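 Rule for the calls: active = plate-corrected calcium response at least 3 library SD above typical, normal starting fluorescence, not activating the receptor alone; inactive = the rest.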
These molecules were tested against Mas-related G-protein coupled receptor member X1 (Homo sapiens) (UniProt Q96LB2) (assay: allosteric enhancers of human MrgX1 signaling – HEK293 cells, Fluo-4 calcium flux, primary screen (AID 588675;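 note: compound read alongside a low EC10 to EC30 dose of BAM8-22 agonist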)). Conditions: MrgX1-HEK293, Fluo-4 calcium flux, FDSS, at 10 µM.
`CCOP(=O)(Nc1cccc2ccccc12)OCC` was tested, and the outcome was “inactive”. With `Cc1ccc(C)c(NP(C)(=O)Oc2ccccc2)c1` (stereo not drawn) the outcome was “inactive”. `CCCOP(=S)(Nc1nc(N)cc(=O)[nH]1)OCCC` was tested, and the outcome was “inactive”. With `Cc1cc(C)cc(OP(C)(=O)Nc2ccccn2)c1` (stereo not drawn) the outcome was “inactive”. With `CP(=O)(Nc1cccc(Br)c1)Oc1ccccc1` (stereo not drawn) the outcome was “inactive”. In the case of `Nc1cccc2c([As](=O)(O)O)cccc12`, the outcome is reported as “inactive”. For `Cc1ccc(NCCc2c([N+](=O)[O-])cc([N+](=O)[O-])cc2[N+](=O)[O-])cc1`, the outcome was “inactive”. In the case of `CCOC(=O)c1ccc(NP(C)(=O)Oc2cc(C)cc(C)c2)cc1` (stereo not drawn), the outcome is reported as “inactive”. In the case of `Cc1cccc(OCC(=O)OC2CN3CCC2CC3)c1` (stereo not drawn), the outcome is reported as “inactive”. With `O=[As](O)(c1cccc(O)c1)c1cccc(O)c1` the outcome was “inactive”. For `Cc1cc(C)cc(OP(C)(=O)Nc2ccc(C)cc2C)c1` (stereo not drawn), the outcome was “inactive”. In the case of `O=[As](O)(O)c1cccnc1`, the outcome is reported as “inactive”. `COc1cc(C(=O)NCC2(N3CCOCC3)CCCCC2)cc(Cl)c1OC(C)C` was tested, and the outcome was “inactive”. In the case of `CS(=O)(=O)c1ccc(Cl)c(NC(=O)COC(=O)C(O)(c2ccccc2)c2ccccc2)c1`, the outcome is reported as “inactive”. With `COc1ccccc1OP(C)(=O)Nc1cccc(Br)c1` (stereo not drawn) the outcome was “inactive”. With `O=C(OC1CN2CCC1CC2)c1ccc(Cl)cc1` (stereo not drawn) the outcome was “inactive”. With `O=[N+]([O-])c1ccc2c(c1)nnn2O` the outcome was “inactive”. For `CN(C)C(=O)c1cc([N+](=O)[O-])cc2c1-c1c(cc([N+](=O)[O-])cc1[N+](=O)[O-])C2=O`, the outcome was “inactive”. For `CC1=NCCc2c1[nH]c1ccccc21.O=[N+]([O-])c1cc([N+](=O)[O-])c(O)c([N+](=O)[O-])c1`, the outcome was “inactive”. `CN(C(=O)Cc1ccc(Cl)c(Cl)c1)[C@H]1CC[C@@]2(CCCO2)C[C@@H]1N1CCCC1` was tested, and the outcome was “inactive”. In the case of `N#CCCN(C(=O)COC(=O)C(O)(c1ccccc1)c1ccccc1)c1ccc(F)cc1`, the outcome is reported as “inactive”. With `CCOP1(=S)c2c(C)nn(CCC#N)c2N=C(c2ccc(F)cc2)N1C` (stereo not drawn) the outcome was “inactive”. With `CN(C(=O)Cc1ccccc1)[C@@H]1CC[C@]2(CCCO2)C[C@H]1N1CCCC1` the outcome was “inactive”. With `NC(=O)Nc1ccc([As](=O)(O)O)cc1` the outcome was “inactive”. For `O=C(O)COc1ccc([As](=O)(O)O)cc1[N+](=O)[O-]`, the outcome was “inactive”. With `Nc1ccccc1[As](=O)(O)c1ccccc1` the outcome was “inactive”. For `CS(=O)(=O)c1cc([N+](=O)[O-])c2no[n+]([O-])c2c1`, the outcome was “inactive”. With `O=C(O)c1cccc(Nc2c([N+](=O)[O-])cc([N+](=O)[O-])cc2[N+](=O)[O-])c1` the outcome was “inactive”. `CCOP1(=S)c2c(C)nn(CCC#N)c2N=C(c2ccccc2F)N1C` (stereo not drawn) was tested, and the outcome was “inactive”. For `O=P(Nc1nccs1)(Oc1ccccc1)Oc1ccccc1`, the outcome was “inactive”. With `O=P(Nc1nccs1)(c1ccccc1)c1nc2ccccc2s1` (stereo not drawn) the outcome was “inactive”. `O=[As](O)(c1cccs1)c1cccs1` was tested, and the outcome was “inactive”. `Cc1ccc(OCC(=O)OC2CN3CCC2CC3)cc1` (stereo not drawn) was tested, and the outcome was “inactive”. In the case of `O=P1(Nc2ccc(Br)cn2)COc2ccccc2OC1`, the outcome is reported as “inactive”. With `CCCOc1ccc(NP(C)(=O)Oc2ccc(Cl)cc2)cc1` (stereo not drawn) the outcome was “inactive”. In the case of `Nc1cccc([As](=O)(O)c2ccccc2)c1`, the outcome is reported as “inactive”. With `CP(=O)(Nc1ccc(SC(F)(F)F)cc1)Oc1ccccc1` (stereo not drawn) the outcome was “inactive”. `CN1CCCCC1COC(=O)C1(O)c2ccccc2CCc2ccccc21` (stereo not drawn) was tested, and the outcome was “inactive”. With `COc1ccccc1OP(C)(=O)Nc1c(C)cccc1C` (stereo not drawn) the outcome was “inactive”. For `O=P1(Nc2ncccn2)COc2ccccc2OC1`, the outcome was “inactive”. In the case of `O=C(/C=C/c1ccccc1)OC1CN2CCC1CC2` (stereo not drawn), the outcome is reported as “inactive”. `CC1=C2N=C(C=C3N=C(C(C)=C4[N-][C@@](C)([C@@H]5N=C1[C@](C)(CCC(=O)NC[C@@H](C)OP(=O)([O-])O[C@H]1[C@@H](O)[C@@H](n6cnc7cc(C)c(C)cc76)O[C@@H]1CO)[C@H]5CC(N)=O)[C@@](C)(CC(N)=O)[C@@H]4CCC(N)=O)[C@@](C)(CC(N)=O)[C@@H]3CCC(N)=O)C(C)(C)[C@@H]2CCC(N)=O.[C-]#N.[Co+3]` was tested, and the outcome was “inactive”. For `CN(C)C1(CNC(=O)c2ccc(S(C)(=O)=O)cc2)CCCCC1`, the outcome was “inactive”. `O=[N+]([O-])c1cc([N+](=O)[O-])c(Nc2nnnn2CCO)c([N+](=O)[O-])c1` was tested, and the outcome was “inactive”. With `CCOC(=O)C(CC)C1=NC(C)(C)Cc2ccccc21.O=[N+]([O-])c1cc([N+](=O)[O-])c(O)c([N+](=O)[O-])c1` (stereo not drawn) the outcome was “inactive”. With `COc1cc(C2NCCC3(OCCO3)C2(C)C)cc(OC)c1OC.O=[N+]([O-])c1cc([N+](=O)[O-])c(O)c([N+](=O)[O-])c1` (stereo not drawn) the outcome was “inactive”. With `Cc1nn(-c2ccccc2)c2c1P(=O)(N1CCOCC1)N(C)C(c1ccccc1)=N2` (stereo not drawn) the outcome was “inactive”. `Cc1ccc(C(=O)OC2CN3CCC2CC3)cc1` (stereo not drawn) was tested, and the outcome was “inactive”. With `CC1CCC(C(C)C)C(OP(=O)(Nc2ccccn2)c2ccccc2)C1` (stereo not drawn) the outcome was “inactive”. With `O=[As](O)(c1ccccc1Br)c1ccccc1Br` the outcome was “inactive”. `Cc1nc2ccc3ccccc3c2s1.O=[N+]([O-])c1cc([N+](=O)[O-])c(O)c([N+](=O)[O-])c1` was tested, and the outcome was “inactive”. In the case of `CC1(CBr)Cn2c(nc3ccccc3c2=O)S1` (stereo not drawn), the outcome is reported as “inactive”. For `CN(C(=O)Cc1ccc(Cl)c(Cl)c1)[C@@H]1CCCC[C@H]1N1CCCC1`, the outcome was “inactive”. In the case of `CC(C)/C=N\N=C(\N)N[N+](=O)[O-]`, the outcome is reported as “inactive”. `COc1ccccc1CNC(=O)COC(=O)C(O)(c1ccccc1)c1ccccc1` was tested, and the outcome was “inactive”. With `O=[N+]([O-])c1cc([N+](=O)[O-])c(-c2cnn(-c3ccccc3)c2)c([N+](=O)[O-])c1` the outcome was “inactive”. In the case of `Clc1n[nH]nc1-c1nn[nH][15n]1`, the outcome is reported as “inactive”. `CC(C)(C)C(=O)NC(Sc1ncccn1)C(Cl)(Cl)Cl` (stereo not drawn) was tested, and the outcome was “inactive”. For `CCOP(=O)(Nc1ccc(C)cn1)OCC`, the outcome was “inactive”. In the case of `CN(CCCl)Cc1cc(Cl)c(NC2=NCCN2)c(Cl)c1`, the outcome is reported as “inactive”. `CCC1=CC2Cc3nc4ccc(Cl)cc4c(N)c3C(C1)C2` (stereo not drawn) was tested, and the outcome was “inactive”. With `O=P1(Nc2ccccn2)COc2ccccc2OC1` the outcome was “inactive”. For `O=[N+]([O-])c1cc([N+](=O)[O-])c(-n2nnc3ccccc32)c([N+](=O)[O-])c1`, the outcome was “inactive”. In the case of `CCOP(=O)(NC(=NC(C)c1ccccc1)NC(C)c1ccccc1)OCC` (stereo not drawn), the outcome is reported as “inactive”. For `CP(=O)(Nc1ccccn1)Oc1ccc(Cl)cc1` (stereo not drawn), the outcome was “inactive”. For `CCC(C)N(CC(C)C)C(=S)SC(NC(C)=O)C(Cl)(Cl)Cl` (stereo not drawn), the outcome was “inactive”. `O=[N+]([O-])c1cc([N+](=O)[O-])c(O)c([N+](=O)[O-])c1.c1ccc(Oc2ccncc2)cc1` was tested, and the outcome was “inactive”. With `CCOC(=O)c1ccc(NC(=O)C(C)(CCl)SC)cc1` (stereo not drawn) the outcome was “inactive”. For `CCOC(=O)c1ccc(NP(C)(=O)Oc2ccc(OC)cc2)cc1` (stereo not drawn), the outcome was “inactive”. `O=C(OC1CN2CCC1CC2)c1cccc([N+](=O)[O-])c1` (stereo not drawn) was tested, and the outcome was “inactive”. For `CCOP(C)(=S)SCC(=O)NC(C)C(=O)O` (stereo not drawn), the outcome was “inactive”. In the case of `CP(=O)(NC(=O)Nc1ccccc1)Oc1ccccc1` (stereo not drawn), the outcome is reported as “inactive”. With `O=C(COc1ccccc1)OC1CN2CCC1CC2` (stereo not drawn) the outcome was “inactive”. For `CCc1ccc(OP(C)(=O)N2CCN(c3ccc([N+](=O)[O-])cc3)CC2)cc1` (stereo not drawn), the outcome was “inactive”. `Cc1cc(C)cc(OP(C)(=O)Nc2ccc(SC(F)(F)F)cc2)c1` (stereo not drawn) was tested, and the outcome was “inactive”. In the case of `O=C(Nc1ccncc1[N+](=O)[O-])c1ccc([N+](=O)[O-])cc1[N+](=O)[O-]`, the outcome is reported as “inactive”. With `COP1(=S)c2c(C)nn(CCC#N)c2N=C(c2ccc(F)cc2)N1C` (stereo not drawn) the outcome was “inactive”. For `CP(=O)(Nc1ccc(SC(F)(F)F)cc1)Oc1ccc(Cl)cc1` (stereo not drawn), the outcome was “inactive”. With `Cc1cccc(C)c1OP(C)(=O)Nc1ccc(SC(F)(F)F)cc1` (stereo not drawn) the outcome was “inactive”. For `CP(=O)(Oc1ccccc1)OC(c1ccccc1)C(F)(F)F` (stereo not drawn), the outcome was “inactive”. With `CP(=O)(Nc1ccccc1Br)Oc1ccccc1` (stereo not drawn) the outcome was “inactive”. `O=[N+]([O-])c1ccc(Nc2ccc(Oc3ccc([N+](=O)[O-])cc3[N+](=O)[O-])cc2)c([N+](=O)[O-])c1` was tested, and the outcome was “inactive”. In the case of `Cc1cc(SC(NC=O)C(Cl)(Cl)Cl)ncn1` (stereo not drawn), the outcome is reported as “inactive”. `O=P(Nc1ccccn1)(c1cccc2ccccc12)c1cccc2ccccc12` was tested, and the outcome was “inactive”. With `COc1ccccc1OP(C)(=O)Nc1ccccc1` (stereo not drawn) the outcome was “inactive”. With `CCOC(=O)Nc1cccc([As](=O)(O)O)c1` the outcome was “inactive”. `CP(=S)(Nn1cnnc1)Oc1ccccc1` (stereo not drawn) was tested, and the outcome was “inactive”. In the case of `Cc1cc(SC(NC(=O)c2ccccc2)C(Cl)(Cl)Cl)nc(C(C)C)n1` (stereo not drawn), the outcome is reported as “inactive”. With `CCOC(=O)Nc1ccc([As](=O)(O)O)c(O)c1` the outcome was “inactive”. For `Cc1cc(C)cc(OP(C)(N)=O)c1` (stereo not drawn), the outcome was “inactive”. `CC(C)NC(=O)NP(=O)(Oc1ccccc1)Oc1ccccc1` was tested, and the outcome was “inactive”. `COc1ccccc1OP(C)(=O)Nc1cc(Cl)ccc1C` (stereo not drawn) was tested, and the outcome was “inactive”. In the case of `CCN(CC)C(=S)SC(NC=O)C(Cl)(Cl)Cl` (stereo not drawn), the outcome is reported as “inactive”. In the case of `COc1ccc(OP(C)(=O)Nc2cccc(F)c2)cc1` (stereo not drawn), the outcome is reported as “inactive”. With `O=[N+]([O-])c1cc([N+](=O)[O-])c(-c2ccn[nH]2)s1` the outcome was “inactive”. In the case of `COc1ccccc1OP(C)(=O)Nc1ccc(C)cc1` (stereo not drawn), the outcome is reported as “inactive”. `CC(C)c1ccc(OP(=O)(Nc2ccccn2)Oc2ccccc2F)cc1` (stereo not drawn) was tested, and the outcome was “inactive”. In the case of `Cc1ccc(NP(C)(=O)Oc2ccccc2)c(C)c1` (stereo not drawn), the outcome is reported as “inactive”. In the case of `CCOC(=O)c1ccc(NP(C)(=O)Oc2ccccc2)cc1` (stereo not drawn), the outcome is reported as “inactive”. With `ClCCSc1nnc(-c2cccnc2)o1` the outcome was “inactive”. `O=[N+]([O-])c1ccc2c(c1)C=Nc1ccccc1O2` was tested, and the outcome was “inactive”. For `Cc1ccc2nc3c(c(C)c2c1)CC(C(Cl)Cl)S3` (stereo not drawn), the outcome was “inactive”. With `Cc1ccc(OP(=O)(Nc2ccc([N+](=O)[O-])cn2)Oc2ccc(C)cc2)cc1` the outcome was “inactive”. `CC(C)(C)c1ccc(OP(C)(=O)Nc2ccc(SC(F)(F)F)cc2)cc1` (stereo not drawn) was tested, and the outcome was “inactive”. In the case of `Cc1cccc(C)c1OP(C)(N)=O` (stereo not drawn), the outcome is reported as “inactive”. In the case of `O=[As](O)(c1ccc(O)cc1)c1ccccc1O`, the outcome is reported as “inactive”. In the case of `C[As](=O)(O)c1cccc(C(=O)O)c1`, the outcome is reported as “inactive”. For `O=[N+]([O-])c1cc([N+](=O)[O-])c(Nc2cccnc2)c([N+](=O)[O-])c1`, the outcome was “inactive”.
